BindingDB's records for 25268943

Legend:
[1] = molecular target: Kappa-type opioid receptor (Homo sapiens, UniProt P41145); assay: Displacement of [3H]U-69593 from human KOR expressed in HEK293 cells after 60 mins by scintillation counting analysis
Mu-type opioid receptor = Mu-type opioid receptor (Homo sapiens, UniProt P35372); assay: Displacement of [3H]DAMGO from human MOR expressed in HEK293 cells after 60 mins by scintillation counting analysis

SMILES: N=C(N)NCC(=O)NCC1(Nc2ccccc2)CCN(Cc2ccccc2)CC1
- Ki [1]: 1230 nM
- Ki (Mu-type opioid receptor): > 5000 nM

SMILES: N=C(N)NCC(=O)NCC1(Nc2cccc3ccccc23)CCN(Cc2ccccc2)CC1
- Ki [1]: 705 nM
- Ki (Mu-type opioid receptor): 2020 nM

SMILES: N=C(N)NCCNC(=O)C1(Nc2ccccc2)CCN(Cc2ccccc2)CC1
- Ki [1]: 224 nM
- Ki (Mu-type opioid receptor): 201 nM

SMILES: COc1cc(NC2(CNC(=O)CNC(=N)N)CCN(Cc3ccccc3)CC2)cc(OC)c1
- Ki [1]: 3680 nM
- Ki (Mu-type opioid receptor): 688 nM
